Screens from PubChem BioAssay.
Hits are enriched below; roughly 3.7% of the tested compounds scored in any of these assays.
Nrf2 block: blocks Nrf2 signaling; AID 504444; Potency, µM (series often up to 46 µM), for inactives: at the top dose activity change, negative = inhibition, actives largely listed as inhibitors; actives 2.1% (n = 360,000); A549 ARE-Fluc reporter, luciferase luminescence, 18-24 h; further: potency means the concentration at half of the fitted maximal effect; on the % scale 0 is the no-effect control and ±100 the full control effect; nearly all actives have a fitted effect of over 60% in size
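In this cell-based qHTS, ARE-driven firefly luciferase in A549 cells reports Nrf2 activity; the luminescent signal after BugLite lysis is the measured value, with a prior CellTiter-Fluor read for cell health.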
ClpP mod: qHTS Assay for Activators of ClpP; purified B. subtilis ClpP, FRET peptide cleavage, 20 min; actives 1.9% (n = 340,000); ATP-dependent Clp protease proteolytic subunit (Bacillus subtilis (strain 168)), P80244; Potency, µM (doses to about 57.5 µM), without a hit: at the highest dose activity change, negative = active; AID 651965, 2013; active means well fitted falling curve with a large enough effect; inconclusive means small, poorly fitted or top-dose-only effect; inactive means no such curve, though single readings can be large or run the other way; further: potency means the concentration at half of the fitted maximal effect; the source files actives as falling curves though it sought activators and does not explain the sign; nearly all actives have a fitted effect of over 65% in size
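Purified B. subtilis ClpP, 10 microg/mL final in Tris/HCl pH8 with KCl, BSA, glycerol and Tween-20, cleaved an Abz/nitrotyrosine-quenched decapeptide. Fluorescence (ex 320, em 430) was read at 0 and 20 min at room temperature. Delta was normalized to 5.8 microM ADEP and DMSO/no-enzyme controls.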
p53 reactivator: restores transcriptional activity of mutant p53. H1299 p53-A138V BP100-luciferase reporter, luminescence, 24 h. Potency, µM (doses to about 92.2 µM), for the others: top-dose activity change, positive = activation, hits mostly activators. actives 0.063% (n = 320,000). AID 504706; further: potency means the concentration at half of the fitted maximal effect; % of control where 0% means no effect; nearly all actives have a fitted effect of over 45% in size
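p53-null H1299 cells stably carrying temperature-sensitive p53-A138V and a BP100-luciferase reporter were pinned with compounds (4-point, 1:5 series) and held 24 hrs at 37 deg C. Luminescence was read 10 min after detection reagent.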
A549 viability: kills or reduces viability of A549 cells in Nrf2 counter-screen | A549 ARE-Fluc cells, CellTiter-Fluor viability, 18-24 h | AID 504648 | actives 0.16% (n = 390,000) | Potency, µM (titrated, usually from 46 µM), for inactives: top-dose activity change, negative = cytotoxicity, hits mostly inhibitors; further: potency means the concentration at half of the fitted maximal effect; on the % scale 0 is the no-effect control and ±100 the full control effect
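Cytotoxicity counterscreen: CellTiter-Fluor fluorescence was measured in A549 ARE_Fluc cells after 18-24 h of compound exposure in a concentration series. The subsequent BugLite luminescent read reports ARE-luciferase activity.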
Nrf2 activator: activates Nrf2 signaling. AREc32 ARE-luciferase reporter (MCF7-derived line), luminescence, 24 h. Potency, µM (top dose mostly 46.1 µM), for the others: at the highest dose activation, hits mostly activators. actives 0.31% (n = 410,000). AID 624171; further: potency means the concentration at half of the fitted maximal effect; % of control where 0% means no effect; nearly all actives have a fitted effect of over 65% in size
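Steps: seed AREc32_Fluc cells (1000/well, 5% FBS OPTI-MEM); incubate overnight at 37 deg C; add 23 nL compound; incubate 24 hr; add Steady-Glo; hold 30 min RT; read luminescence.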
miR-21 reporter: miR-21 reporter, rising signal | 340,000 tested, under 10 active | AID 2288 | HeLa miR-21 FLuc reporter, luciferase, 48 h | Potency, µM (titrated, usually from 38.3 µM), for inactives: at the highest dose reporter change, positive = more light; active = well fitted rising curve with a large enough effect; inconclusive = small, poorly fitted or top-dose-only effect; inactive = no such curve, though single readings can be large or run the other way;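 further: % of control where 0% means no effect; miR-21 action dims this reporter so a rising signal means less miR-21 action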
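Using DMEM plus 10% FBS, HeLa miR-21-FLuc cells are incubated with test compounds (final up to about 40uM) for 48 hours; firefly luciferase signal is then imaged following reagent-mediated lysis.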
* hit, by the source's call; ? = inconclusive; . = no result given; ! = not active in a repeat; [ ] = dose if it differs, or a comment. Unless noted, the call rests on the fitted dose curve; in most records, active means well fitted curve in the direction sought with a large enough effect; inconclusive means small, poorly fitted or top-dose-only effect, or another doubt; inactive means no such curve, though single readings can be large; an effect the other way counts as inactive or inconclusive.

cpd	SMILES	Nrf2 block	ClpP mod	p53 reactivator
1	CC(C)NC(=O)COC(=O)c1ccccc1OCC(=O)Nc1ccc(Br)cc1	.	1.1%	.
2	O=C(NCc1ccc(F)cc1)C(=O)NCC(c1ccc2c(c1)OCO2)N1CCOCC1 (stereo not given)	.	0.2%	.
3	Cc1cc(N(C)Cc2ccccc2)n2nc(-c3ccc(C(C)(C)C)cc3)nc2n1	7.9%	-3.1%	.
4	CCc1ccc(N2CCn3c2nc2c3c(=O)n(Cc3c(F)cccc3Cl)c(=O)n2C)cc1	23.1µM*	-3.8%	.
5	CCOc1ccc(OCC)c(NC(=O)c2cc(S(=O)(=O)N3CCCC3)cn2C)c1	-2.7%	42.0%	.
6	Cc1cc(Br)cc(C)c1NC(=O)c1sc2ncn(Cc3cccc(F)c3)c(=O)c2c1C	.	-10.2%	.
7	COc1cc(C(=O)Nc2ccccc2OCc2cc(=O)n3cc(C)sc3n2)cc(OC)c1OC	9.3%	0.6%	.
8	Cc1ccc(-n2c(O)c(C=Nc3cc(C)on3)c3ccccc3c2=O)c(C)c1	23.1µM*	-1.0%	-7.7%

cpd	A549 viability	Nrf2 activator	miR-21 reporter
1	.	.	.
2	0.0%	-1.0%	0.5%
3	9.4%	4.1%	1.8%
4	-8.2%	-0.8%	3.4%
5	-1.9%	2.5%	-2.1%
6	5.5%	-0.8%	12.5%
7	-0.1%	-2.1%	-7.1%
8	?	0.0%[9.22 µM]	19.2%

Remaining list, next part
cpd	SMILES	Nrf2 block	ClpP mod	p53 reactivator
9	Cc1cc(N=Cc2c(O)n(-c3ccc(C)c(C)c3)c(=O)c3ccccc23)no1	.	.	11.9%
10	CCCCn1c(SCC(=O)c2cc(OC)ccc2OC)nc2cc(S(N)(=O)=O)ccc21	20.8%	35.9%	-1.4%
11	CCCCn1c(SCc2ccc(C(=O)OC)o2)nc2cc(S(N)(=O)=O)ccc21	16.4µM*	-1.4%	-4.5%
12	O=C(NCc1ccccc1)C(=O)NCC(c1cccs1)S(=O)(=O)c1ccccc1 (stereo not given)	.	-0.3%	.
13	COc1ccc(OC2C(=O)N(Cc3ccc4c(c3)OCO4)C2c2cccs2)cc1 (stereo not given)	13µM*	-2.2%	-1.3%
14	Cc1ccc(CNC(=O)c2cccc(Nc3nc4ccccc4n4nnnc34)c2)cc1	1.6%	-8.5%	.
15	O=C1OC(/C(=C\Nc2cc(Cl)ccc2O)[N+](=O)[O-])c2ccccc21 (stereo not given)	?	.	-11.0%
16	Cc1ccc2nc(CSc3nc(C)nc4c3oc3ccccc34)[nH]c2c1	18.4µM*	.	-2.2%

cpd	A549 viability	Nrf2 activator	miR-21 reporter
9	.	.	-1.9%
10	3.9%	-0.8%	-12.5%
11	-8.6%	3.2%	9.4%
12	2.0%	-1.5%	-1.7%
13	-26.2%	2.2%	27.2%
14	0.7%	7.5%	-16.0%
15	-8.2%	11.2µM*	9.4%
16	?	-0.4%	.

Continued.
cpd	SMILES	Nrf2 block	ClpP mod	p53 reactivator
17	CC(C)C[C@H]1CN(CCCC[C@@H]2CNC(=O)C(=O)N2CCc2ccccc2)C(=O)C(=O)N1Cc1ccccc1	.	-0.4%	.
18	CCC(=O)NC(c1cc(Cl)c2cccnc2c1O)c1cccn1C (stereo not given)	25.9µM*	.	.
19	CC(=O)NC(c1cc(Cl)c2cccnc2c1O)C(C)C (stereo not given)	20.6µM*	.	26.5%
20	CCC(=O)NC(c1ccc(OC)cc1)c1cc(Cl)c2cccnc2c1O (stereo not given)	25.9µM*	-2.5%	-3.2%
21	CCCCC(=O)NC(c1ccco1)c1cc(Cl)c2cccnc2c1O (stereo not given)	?	.	1.1%
22	CCC(=O)NC(c1ccco1)c1cc(Cl)c2cccnc2c1O (stereo not given)	9.2µM*!	.	4.6%
23	COc1ccc(NC(=O)CCc2c(C)nn(-c3ccc(N4CCOCC4)nn3)c2C)cc1Cl	?	-1.6%	.
24	Cc1cc(=O)oc2c(C)c(OCC(=O)N(C)C)ccc12	23.9%	15.8µM*	-6.0%

cpd	A549 viability	Nrf2 activator	miR-21 reporter
17	.	-0.4%	.
18	-11.2%	.	.
19	-12.0%	-0.3%	.
20	-9.9%	-1.2%	18.8%
21	-18.9%	-0.1%	2.5%
22	?	2.0%	?
23	2.7%	1.2%	-58.2%
24	-3.0%	0.2%	-2.8%

Next section; the last 4 above are carried over.
cpd	SMILES	Nrf2 block	ClpP mod	p53 reactivator
21	CCCCC(=O)NC(c1ccco1)c1cc(Cl)c2cccnc2c1O (stereo not given)	?	.	1.1%
22	CCC(=O)NC(c1ccco1)c1cc(Cl)c2cccnc2c1O (stereo not given)	9.2µM*!	.	4.6%
23	COc1ccc(NC(=O)CCc2c(C)nn(-c3ccc(N4CCOCC4)nn3)c2C)cc1Cl	?	-1.6%	.
24	Cc1cc(=O)oc2c(C)c(OCC(=O)N(C)C)ccc12	23.9%	15.8µM*	-6.0%
25	CCCCc1cc(=O)oc2c(C)c(OCC(=O)N3CCC(C(=O)O)(c4ccccc4)CC3)ccc12	-16.5%	4.5%	.
26	Cc1c(C)c2ccc(OCC(=O)N(C)C)c(C)c2oc1=O	17.8%	-1.0%	7.7%
27	CCCCc1cc(=O)oc2c(C)c(OCC(=O)N3CCCC3)ccc12	?	12.6µM*	-29.2%
28	CCCOc1ccc2c(CC)cc(=O)oc2c1C	0.4%	?	14.2%
29	C=C(C)COc1ccc2c(CC)cc(=O)oc2c1C	-18.9%	12.6µM*	-5.7%
30	CCCCNC(=S)NCCCc1cnc[nH]1	8.3%	.	.
31	CCOc1ccc(CNS(=O)(=O)c2c(C(=O)N3CCC(C)CC3)c(C)n(C)c2C)cc1OC	.	-0.8%	.
32	COc1cccc(/C(C)=N/NC(=O)c2cc(-c3cccnc3)nc3ccccc23)c1	20.6µM*	-0.4%	5.1%

cpd	A549 viability	Nrf2 activator	miR-21 reporter
21	-18.9%	-0.1%	2.5%
22	?	2.0%	?
23	2.7%	1.2%	-58.2%
24	-3.0%	0.2%	-2.8%
25	0.7%	1.1%	-14.0%
26	3.4%	-0.8%	-19.8%
27	4.3%	3.4%	-17.3%
28	12.0%	4.0%	-33.1%
29	14.0%	-0.7%[9.22 µM]	-22.2%
30	23.6%	.	.
31	-5.1%	-0.2%	-13.6%
32	-6.1%	3.7%	-5.6%

Continued:
cpd	SMILES	Nrf2 block	ClpP mod	p53 reactivator
33	CC(=O)Nc1cccc(NC(=O)c2cc(-c3cccnc3)nc3ccc(Cl)cc23)c1	?	0.3%	-3.5%
34	COc1cccc(-c2cc(C(=O)Nc3ccncc3)c3ccccc3n2)c1	-4.4%	12.6µM*	-2.3%
35	CC(=O)Nc1cccc(NC(=O)c2cc(-c3cccnc3)nc3ccc(Br)cc23)c1	11.6µM*	-1.3%	-6.8%
36	COc1cc(NC(=O)c2cc3cccc(OC)c3o2)cc(C(=O)Nc2cccc(C(F)(F)F)c2)c1	?	25.1µM*	0.9%
37	COc1cc(NC(=O)c2ccno2)cc(C(=O)Nc2cccc(C(F)(F)F)c2)c1	?	0.1%	-7.2%
38	O=S(=O)(c1ccccc1)N1CCN(Cc2ccccc2C(F)(F)F)CC1	-9.1%	1.6%	6.6%
39	O=[N+]([O-])c1ccccc1CN1CCN(S(=O)(=O)c2ccccc2)CC1	16.4µM*	-15.3%	.
40	Cc1c(Cl)cccc1NC(=O)C(C)n1nnc2sc3c(c2c1=O)CCCC3 (stereo not given)	2.9%	0.4%	.
41	Cc1ccc(-c2nc3ccccc3[nH]2)cc1NC(=S)NC(=O)c1ccccc1Br	18.4µM*	9.6%	1.6%
42	COc1ccc(-c2nc(CN3CCC(C(=O)NCCCN4CCN(c5ccccc5F)CC4)CC3)c(C)o2)cc1OC	-10.0%	-20.8%	.

cpd	A549 viability	Nrf2 activator	miR-21 reporter
33	-6.8%	5.5%	14.4%
34	-12.3%	5.2%	20.6%
35	?	-0.2%	14.8%
36	-2.8%	4.0%	?
37	-14.2%	3.6%	?
38	-1.6%	-0.3%	-1.4%
39	-4.6%	0.5%	.
40	0.2%	-1.1%	7.3%
41	?	2.2%	-13.3%
42	?	2.1%	20.2%
